Test results reported in article PMC7203245, “Lacosamide intake during pregnancy increases the incidence of foetal malformations and symptoms associated with schizophrenia in the offspring of mice” (Scientific Reports, 2020).

Assay: LCM and related compounds (RC) in embryos and mothers' serum by high-resolution MS/MSe
Type: in vivo, mice
Details: dams that received 40 and 80 mg/kg
Procedure: Samples were extracted as described previously[25] with slight modifications. Briefly, embryos were rinsed with cold saline and ultrapure water, and their wet-weight was determined. […] The mixture was vortexed vigorously for 3 min and centrifuged at 13,000 g for 5 min. The supernatant was transferred to a new Eppendorf tube and evaporated to dryness in a stream of nitrogen gas. The residue was reconstituted with 50 µL of LC-MS Ultrapure water, vortexed for 20 s and centrifuged at 13,000 g for 5 min. The supernatant was transferred to a conic micro insert to be injected onto the UHPLC system.
MS spectra data were collected between m/z 50 and 1000, and MS/MS spectra were registered between 50-300 Da. […] The MS^e procedure was used to identify metabolites in positive ionization mode. UPLC–QTOF-MS^e detection collects data using two scan functions, providing fragment ion information without precursor ion selection. A characteristic m/z in the low energy function allows identification through the fragment ions obtained with the high collision energy function. Two functions were acquired at different collision energies: a low energy function obtained at 2 eV; and a high-energy function obtained using a collision energy ramp ranging from 15 to 30 eV and spectra data collected between m/z 50 and 800. […]

Question: For acetylacosamide, which “presence in maternal samples” value is on record?
Answer: The value was “none of the maternal samples contained”.
